# Assay results from paper PMC11767819, “Drug Screening of Flavonoids as Potential VEGF Inhibitors Through Computational Docking and Cell Models” (Molecules, 2025).
# Tested on: NF-κB in RAW 264.3 cells
# Test: Luciferase activity of NF-κB, VEGF-induced
# Format: cell-based
# Conditions: chemicals 1, 10 and 25 µM, avastin 10 ng/mL
smiles,measurement,value
Cc1c(O)c(C)c2c(c1O)C(=O)C[C@@H](c1ccc(O)cc1)O2 [farrerol],Effect on VEGF-induced NF-κB activity (in words),suppressed in dose-dependent manners
